Laboratory results published in patent US9603869B2, “Lithium co-crystals and an additional neuropsychiatric agent for treatment of neuropsychiatric disorders” (UNIVERSITY OF SOUTH FLORIDA, priority 2015, dated 2017).

Experiments:
COX2 [1] = assay: COX2 expression Western blot in human renal proximal tubule (HRPT) cells; conditions: 0 to 30 mM, 12 hours
[2] = effective dose (2.25 mmol/kg/day diet), FIGS. 24 and 25
[3] = Smith A J et al., Mol. Pharmaceutics 2013; cited from earlier work
[4] = rats, 4 mEq/kg lithium, oral gavage
COX2 [5] = conditions: Tg2576 mice, diet 8 weeks, lithium 2.25 mmol/kg/day

## Lithium Salicylate Proline [LISPRO]
COX2 [1]
  COX2 expression (WB): does not Increase COX2 Expression
[2]
  brain lithium levels compared with equimolar doses of lithium carbonate: higher lithium levels in the brain
  steady state lithium level in the periphery: 0.1 mM
[3]
  pharmacokinetics compared to other lithium forms: plateau-like pharmacokinetics
[4]
  brain lithium level profile: steady brain levels of lithium at 24 hours and 48 hours
  plasma lithium level at 2 hours: elevated
  plasma lithium level at 48 hours: remained elevated
  plasma lithium level at 72 hours: almost undetectable
  time at which plasma lithium levels peaked: 24 h
COX2 [5]
  kidney (renal) COX2 expression versus control mice: no significant difference
